# GIV Gai3 FP – inhibitors of GIV GBA-motif binding to rat Galpha-i3; P08753; Galpha-i3/FITC-GIV peptide fluorescence polarization, 90 min; stronger effect = lower value; scaled: aluminum fluoride 0%, vehicle 100%; percent of control (FP), % (test concentration not listed); 210,000 tested, 0.42% active; AID 1224905;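 active = replicate mean at 85% of control or lower, very high polarization wells dropped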;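 note: wells of about 15 µL received 100 nL stock; the first replicate is given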
# HCMV NEC inh – inhibitors of HCMV UL50-UL53 interaction, biochemical, HTRF; normalized percent inhibition; HCMV UL50-UL53 nuclear egress complex (human cytomegalovirus); inhibition, % (test concentration not listed); AID 1918969, 2023; 190,000 tested, 0.15% active; in the data active = inhibition above about 27%, passing the limit was not always enough
# GIV Gai FP conf – inhibitors of GIV peptide binding to Galpha-i3, confirmation, biochemical, fluorescence polarization, FITC-GIV peptide, rat Galphai3; shares compounds with GIV Gai3 FP; active compounds read low; fluorescence polarization, mP at 100 µM; 580 tested, 38% active; AID 1259350, 2017;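 active = inhibition score of 15 or more, meaning 100 minus mean polarization as percent of control over three replicates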;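 also: lower mP means peptide displaced from Galphai3 so more inhibition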
# GIV Gai AS conf – inhibitors of GIV binding to Galpha-i3, confirmation, orthogonal assay for GIV-Galpha-i inhibitor project, biochemical, AlphaScreen, His-GIV, GST-Galphai3 | AID 1259351, 2017 | 580 tested, 39% active | shares compounds with GIV Gai3 FP | AlphaScreen counts at 100 µM | purified proteins, 90 min; active compounds read low;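 active = inhibition score at or above a set limit, where the score is 100 minus the three-replicate mean percent of control signal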
# * = called active by the depositor; x = no result. Most compounds without a hit are left out; they make up all but 0.43% or so of the library.
cpd	SMILES	HCMV NEC inh	GIV Gai3 FP	GIV Gai FP conf	GIV Gai AS conf
1	CCOC(=O)c1cnc2c(C)c(C)ccc2c1NCCCCCO	-16.3	103.6	x	x
2	COc1cccc(C2=N/C(=C\c3ccccc3OC)C(=O)N2c2ccc(C)cc2Br)c1	x	114.1	x	x
3	COc1cccc(C2=N/C(=C\c3ccccc3OC)C(=O)N2c2ccc(C)cc2C)c1	x	73.0*	67.7	40847
4	CCN(CC)C(=O)c1ccc2c(c1)N(Cc1ccc(F)cc1)C(=O)c1ccccc1S2=O (stereo not drawn)	0.0	100.3	x	x
5	CC(NC(=O)c1ccc(C#N)cc1)C(c1cccs1)N1CCCC1 (stereo not drawn)	-28.2	x	x	x
6	O=C1CCCc2cc(S(=O)(=O)Nc3ccccc3)ccc2N1	-15.7	107.3	x	x
7	O=C(O)C1CC(=O)N(Cc2ccc3c(c2)OCO3)C1 (stereo not drawn)	29.6	51.3*	18.5*	1816*
8	O=C(O)C1CC(=O)N(Cc2ccc(F)cc2)C1 (stereo not drawn)	x	99.0	x	x
9	Cc1ccc(NC(=S)Nc2cccc(C(F)(F)F)c2)cc1NS(C)(=O)=O	74.5*	68.9*	50*	38510
10	COC(CNC(=S)Nc1cccc(C(F)(F)F)c1)OC	-1.6	103.6	x	x
11	COc1cc(C(c2c(C)[nH]n(-c3ccccc3)c2=O)c2c(C)[nH]n(-c3ccccc3)c2=O)ccc1O	x	120.3	x	x
12	Cc1[nH]n(-c2ccccc2)c(=O)c1C(c1cccc(O)c1)c1c(C)[nH]n(-c2ccccc2)c1=O	x	66.5*	50.7*	11539*
13	Cc1[nH]n(-c2ccccc2)c(=O)c1C(c1ccc(OCc2ccccc2Cl)cc1)c1c(C)[nH]n(-c2ccccc2)c1=O	x	106.5	x	x
14	CCCCCCCOc1ccc(C(c2c(C)[nH]n(-c3ccccc3)c2=O)c2c(C)[nH]n(-c3ccccc3)c2=O)cc1	x	82.0*	73.1	41609
15	Cc1[nH]n(-c2ccccc2)c(=O)c1C(c1cccc([N+](=O)[O-])c1)c1c(C)[nH]n(-c2ccccc2)c1=O	x	103.1	x	x
16	COc1ccccc1C(c1c(C)[nH]n(-c2ccccc2)c1=O)c1c(C)[nH]n(-c2ccccc2)c1=O	x	73.9*	66.4	42679
17	CCOc1ccccc1C(c1c(C)[nH]n(-c2ccccc2)c1=O)c1c(C)[nH]n(-c2ccccc2)c1=O	x	112.8	x	x
18	Cc1[nH]n(-c2ccccc2)c(=O)c1C(c1cccc(Br)c1)c1c(C)[nH]n(-c2ccccc2)c1=O	x	73.6*	67.7	23480*
19	Cc1nc(C(C)Nc2ncnc3sccc23)cs1 (stereo not drawn)	-4.4	x	x	x
20	CCOc1ccc(N(C(=O)c2ccncc2)S(=O)(=O)c2ccc3c(c2)oc(=O)n3C)cc1	-3.6	134.8	x	x
21	Cc1nc(-c2cc(S(=O)(=O)Nc3cc(F)ccc3F)c(C)s2)sc1C	x	96.6	x	x
22	CC(C)S(=O)(=O)c1ccc(N2CCN(c3ncccn3)CC2)nn1	-30.7	96.2	x	x
23	O=C(C1=C(O)C(=O)N(Cc2cccnc2)C1c1ccc(F)cc1)c1cccs1 (stereo not drawn)	-13.4	x	x	x
24	Cc1[nH]n(-c2ccccc2)c(=O)c1C(c1ccccc1)c1c(C)[nH]n(-c2ccccc2)c1=O	x	77.1*	62.9	18252*
25	Cc1[nH]n(-c2ccccc2)c(=O)c1C(c1ccc(N(C)C)cc1)c1c(C)[nH]n(-c2ccccc2)c1=O	x	104.4	x	x
26	O=S(=O)(Nc1ccc(O)c(Sc2ncn[nH]2)c1)c1ccccc1	x	103.4	x	x
27	O=C1C(Sc2ncn[nH]2)=C/C(=N/S(=O)(=O)c2ccc(Cl)cc2)c2ccccc21	-8.3	8.2*	17.5*	4487*
28	O=C(/C=C/c1ccccc1)/C=C/c1ccccc1	x	79.7*	46.6*	17701*
29	O=C(O)/C=C/c1ccc(/C=C/C(=O)O)cc1	-33.0	108.2	x	x
30	CCOC(=O)c1[nH]c(=O)c2ccccc2c1O	-11.8	110.0	x	x

# A second format for six compounds above:
# Sequence of screens – HCMV NEC inh	GIV Gai3 FP	GIV Gai FP conf	GIV Gai AS conf
(9) Cc1ccc(NC(=S)Nc2cccc(C(F)(F)F)c2)cc1NS(C)(=O)=O
 : 74.5*	68.9*	50*	38510
(10) COC(CNC(=S)Nc1cccc(C(F)(F)F)c1)OC
 : -1.6	103.6	x	x
(11) COc1cc(C(c2c(C)[nH]n(-c3ccccc3)c2=O)c2c(C)[nH]n(-c3ccccc3)c2=O)ccc1O
 : x	120.3	x	x
(12) Cc1[nH]n(-c2ccccc2)c(=O)c1C(c1cccc(O)c1)c1c(C)[nH]n(-c2ccccc2)c1=O
 : x	66.5*	50.7*	11539*
(13) Cc1[nH]n(-c2ccccc2)c(=O)c1C(c1ccc(OCc2ccccc2Cl)cc1)c1c(C)[nH]n(-c2ccccc2)c1=O
 : x	106.5	x	x
(14) CCCCCCCOc1ccc(C(c2c(C)[nH]n(-c3ccccc3)c2=O)c2c(C)[nH]n(-c3ccccc3)c2=O)cc1
 : x	82.0*	73.1	41609

# (further entries)
cpd	SMILES	HCMV NEC inh	GIV Gai3 FP	GIV Gai FP conf	GIV Gai AS conf
31	Cc1ccc(C(=O)c2[nH]c(=O)c3ccccc3c2O)c(C)c1	59.6*	81.2*	60.9	47319
32	CCN1/C(=C\C=C\c2n(CC)c3cc(Cl)c(Cl)cc3[n+]2CCCS(=O)(=O)[O-])N(CCCS(=O)(=O)O)c2cc(Cl)c(Cl)cc21	x	79.2*	74.4	10331*
33	Cn1c(=O)cc2c3c(c(Nc4cccc(C(F)(F)F)c4)ccc31)C(=O)c1ccccc1-2	x	93.6	x	x
34	CN(C)/C=C/C=C/c1cc(=O)cc(/C=C/C=C/N(C)C)o1	66.9*	5.8*	25.3*	2403*
35	CC1(C(=O)NC2CCCC2)CCC(=O)N1C1CCCCC1 (stereo not drawn)	-30.4	102.0	x	x
36	O=c1c(Cl)c(N2CCN(c3ccccc3)CC2)cnn1-c1ccccc1	x	108.1	x	x
37	COc1cc(-c2nc(C=Nc3ccc4ccccc4c3)c(O)o2)cc(OC)c1OC	x	104.4	x	x
38	COC(=O)c1ccc(N=Cc2nc(-c3cc(OC)c(OC)c(OC)c3)oc2O)cc1	x	95.4	58.2	54563
39	CCc1ccccc1NS(=O)(=O)c1cc(-c2nc(C)c(C)s2)sc1C	x	100.0	x	x
40	COc1ccc(/C=C2\C=C(c3ccccc3)N(c3ccc(O)cc3)C2=O)cc1Br	x	111.2	x	x
41	COc1ccc(/C=C2\C=C(c3ccccc3)N(c3ccc(Cl)c(Cl)c3)C2=O)cc1Br	x	119.4	x	x
42	COc1ccc(/C=C2\C=C(c3ccccc3)N(c3ccc(Br)cc3)C2=O)cc1	x	102.1	x	x
43	COc1ccc(/C=C2\C=C(c3ccccc3)N(c3cccc(C(C)=O)c3)C2=O)cc1Br	x	78.2*	72.6	38656
44	COC(=O)c1cc(N2C(=O)/C(=C/c3ccc(OC)c(Br)c3)C=C2c2ccccc2)ccc1Cl	x	7.0*	61.8	49090
45	COc1ccc(N2C(=O)/C(=C/c3ccc(Cl)cc3)C=C2c2ccccc2)cc1	x	82.5*	76.6	32406
46	COc1ccc(/C=C2\C=C(c3ccccc3)N(c3cccnc3)C2=O)cc1Br	x	44.3*	66	45797
47	COc1ccc(/C=C2\C=C(c3ccccc3)N(c3ccc(Br)cc3)C2=O)cc1Br	x	109.8	x	x
48	Cc1cc2oc(C(=O)Nc3cccnc3)cc(=O)c2cc1C	0.9	101.8	x	x
49	Oc1ccc(N=Cc2ccccc2O)cc1	7.0	103.8	x	x
50	Oc1ccccc1C=Nc1cccnc1	-5.1	82.8*	42.2*	16309*
51	Nc1cccc2c1C(=O)N(CCO)C2=O	-65.1	74.8*	55.4*	50751
52	Nc1cccc2c1C(=O)N(CC(=O)N1CCc3ccccc31)C2=O	-10.5	x	x	x
53	Cc1cc(N=CNc2ccc(Br)c(C)c2)ccc1Br	-2.0	x	x	x
54	CC1=C(C(=O)OC(C)C)C(c2ccc(C(C)C)cc2)C(C#N)=C(N)S1 (stereo not drawn)	-8.5	x	x	x
55	CC(C)c1ccc(C2C(C#N)=C(N)N3C(=C2C#N)Sc2ccccc23)cc1 (stereo not drawn)	x	78.9*	75.4	39185
56	CCOC(=O)CC1(NC(=O)N2CCCCCC2c2ccc(C)s2)CCCCC1 (stereo not drawn)	x	104.2	x	x
57	CSc1scc2c1C(=O)CC(C)(C)C2	-8.5	103.2	x	x
58	CSc1scc2c1C(=O)/C(=C/N(C)C)CC2	-84.3	14.2*	29*	1880*

# Screening data (PubChem BioAssay)
